Data: article PMC4268634

Protein sequences, listed by entry. Tags and fused reporters are not part of them. Residues count along the entry.
UniProt P35968, 20-764: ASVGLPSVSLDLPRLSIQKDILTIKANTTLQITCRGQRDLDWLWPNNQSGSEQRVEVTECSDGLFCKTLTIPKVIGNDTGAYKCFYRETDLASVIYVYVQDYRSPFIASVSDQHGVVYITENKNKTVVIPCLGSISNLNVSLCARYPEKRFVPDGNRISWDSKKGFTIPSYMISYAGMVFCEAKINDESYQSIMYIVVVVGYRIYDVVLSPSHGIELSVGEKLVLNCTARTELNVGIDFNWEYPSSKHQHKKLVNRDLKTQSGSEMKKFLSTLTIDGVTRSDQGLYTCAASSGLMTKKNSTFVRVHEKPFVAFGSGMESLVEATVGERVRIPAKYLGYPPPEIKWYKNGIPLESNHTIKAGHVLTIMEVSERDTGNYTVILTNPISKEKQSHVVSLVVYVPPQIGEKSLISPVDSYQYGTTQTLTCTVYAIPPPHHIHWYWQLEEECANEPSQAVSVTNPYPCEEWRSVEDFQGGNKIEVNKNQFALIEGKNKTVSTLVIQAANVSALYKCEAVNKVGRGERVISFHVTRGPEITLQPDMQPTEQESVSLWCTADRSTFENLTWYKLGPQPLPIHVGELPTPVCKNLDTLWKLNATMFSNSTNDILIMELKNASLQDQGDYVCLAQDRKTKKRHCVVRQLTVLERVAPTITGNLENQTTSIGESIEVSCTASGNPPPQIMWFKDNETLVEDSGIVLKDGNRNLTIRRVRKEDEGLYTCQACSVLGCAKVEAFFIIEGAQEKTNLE

How the values were obtained:
Assay in all cases: SPR
[1] = target: Z_(VEGFR2_40)-(S4G)4-ABD035-(S4G)4-Z_(VEGFR2_40)
[2] = target: Z_(VEGFR2_22)-(S4G)4-ABD035-(S4G)4-Z_(VEGFR2_22)
[3] = target: Z_(VEGFR2_40)-(S4G)4-ABD035-(S4G)4-Z_(VEGFR2_22)
[4] = target: Z_(VEGFR2_22)-(S4G)4-ABD035-(S4G)4-Z_(VEGFR2_40)

monomeric human VEGFR2 (from UniProt P35968 20-764) (receptor)
koff [1]: 0.0012 s⁻¹ | koff [2]: 0.0016 s⁻¹ | koff [3]: 0.00015 s⁻¹ | koff [4]: 8.4e-05 s⁻¹
